Measured values from patent US20240150396A1 (The Texas A&M University System, priority 2021, published 2024).

The chains behind the UniProt entries cited, without tags or fusion partners. Residues count along the entry.
UniProt P07711, 114-333 limits assumed: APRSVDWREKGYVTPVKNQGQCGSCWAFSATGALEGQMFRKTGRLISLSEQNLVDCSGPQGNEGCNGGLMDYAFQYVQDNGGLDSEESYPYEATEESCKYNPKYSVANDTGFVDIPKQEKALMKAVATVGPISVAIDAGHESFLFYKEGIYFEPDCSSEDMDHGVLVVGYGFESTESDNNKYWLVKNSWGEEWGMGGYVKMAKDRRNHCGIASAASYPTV

Target: human cathepsin L (Homo sapiens (Human), UniProt P07711)
Assay: Human cathepsin L inhibition, Z-FR-AMC assay
Type: biochemical
Details: read-out: Ki* hCatL; pH 5.5, 25° C.

## CC(C)[C@H](NC(=O)OCc1ccccc1)C(=O)N[C@@H](CC1CCCCC1)C(=O)N[C@H](C=O)Cc1ccc[nH]c1=O
  Ki: 50 nM
